From patent publication US8778966B2, “Quinolinone derivatives as PARP and tank inhibitors” (Janssen Pharmaceutica, NV, priority 2007, dated 2014)

Tested on: HCT116 cells
Experiment: Mitotic arrest assay on HCT116 cells (phospho-histone H3 Ser10)
Settings: lowest active dose
From the text: Phosphorylation of histone H3 is tightly correlated with chromosome condensation during both mitosis and meiosis. The assay is a cellular immunosorbent assay wherein the sole antibody is labelled with a detectable conjugate. The phospho-histone H3 (ser10) antibody detects endogenous levels of histone H3 only when phosphorylated at serine 10. […] In parallel with antibody detection, the nuclei of the cells are stained with Hoechst 33342 for cell-counting. Cells are detected and analysed using the InCell Analyzer 1000 from GE Healthcare. Since both the antibody-detection as well as the Hoechst-staining are in the nucleus, the dual area object intensity algorithm is used for analysing the wells.
All compounds tested were dissolved in DMSO and further dilutions were made in culture medium. Final DMSO concentrations never exceeded 0.1% (v/v). […]
A 1/2000 dilution of Hoechtst 33342 (10 mg/ml, supplier: Invitrogen) was made and 100 μl/well was added for at least 30 minutes before acquiring images. The absorbance at dual wavelengths of 360/480 nm was measured using the InCell Analyzer 1000 from GE Healthcare and the results were then analyzed.
For each experiment, controls (containing no drug) and a blank incubation (containing no cells or drugs) were run in parallel. […] Herein the effects of test compounds are expressed as the lowest dose giving a sigma value of >5 (LAD) (see table F-2).

With `CCc1cc2ccc(C(C)(C#N)Cc3cccc([N+](=O)[O-])c3)cc2[nH]c1=O` (stereo not shown) the “Mitotic arrest HCT116 LAD” value was 7 M.
